Test results: PubChem BioAssay (NCI)
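Results reflect a 48-hour exposure of cells in 96-well plates to compound at five concentrations. Abbreviation: GI50, concentration required for 50% inhibition of growth. TGI denotes the concentration required for complete inhibition of growth.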

How the values were obtained:
Experiment in all cases: NCI-60 cell line screen, 48 h
[1] = tested on: SW-620 colon
[2] = tested on: SF-268 CNS
[3] = tested on: UACC-62 melanoma
[4] = tested on: HS 578T breast
[5] = tested on: SF-539 CNS
[6] = tested on: HOP-62 NSCLC
[7] = tested on: T-47D breast
[8] = tested on: MOLT-4 leukemia
[9] = tested on: HCT-15 colon
[10] = tested on: 786-0 renal
[11] = tested on: RXF 393 renal
[12] = tested on: NCI-H522 lung
[13] = tested on: SN12C renal
[14] = tested on: MDA-MB-231 breast
[15] = tested on: MDA-MB-435
[16] = tested on: OVCAR-3 ovarian
[17] = tested on: CAKI-1 renal
[18] = tested on: NCI/ADR-RES ovarian
[19] = tested on: NCI-H460 lung
[20] = tested on: HOP-92 NSCLC
[21] = tested on: K-562 leukemia
[22] = tested on: UO-31 renal
[23] = tested on: RPMI-8226 leukemia
[24] = tested on: MCF7 breast
[25] = tested on: HCC-2998 colon
[26] = tested on: MDA-N
[27] = tested on: SK-OV-3 ovarian
[28] = tested on: SK-MEL-2 melanoma
[29] = tested on: SNB-19 CNS
[30] = tested on: U251 CNS
[31] = tested on: NCI-H226 lung
[32] = tested on: A549 NSCLC
[33] = tested on: LOX IMVI melanoma
[34] = tested on: OVCAR-4 ovarian
[35] = tested on: SF-295 CNS
[36] = tested on: A498 renal
[37] = tested on: DU-145 prostate
[38] = tested on: HT29 colon
[39] = tested on: IGROV1 ovarian
[40] = tested on: TK-10 renal
[41] = tested on: SK-MEL-5 melanoma
[42] = tested on: HL-60(TB) leukemia
[43] = tested on: BT-549 breast
[44] = tested on: COLO 205 colon
[45] = tested on: HCT-116 colon
[46] = tested on: KM12 colon
[47] = tested on: UACC-257 melanoma
[48] = tested on: SK-MEL-28 melanoma
[49] = tested on: ACHN renal
[50] = tested on: EKVX NSCLC
[51] = tested on: NCI-H23 lung
[52] = tested on: CCRF-CEM leukemia
[53] = tested on: NCI-H322M lung
[54] = tested on: PC-3 prostate
[55] = tested on: OVCAR-5 ovarian
[56] = tested on: MALME-3M melanoma
[57] = tested on: SR leukemia
[58] = tested on: SNB-75 CNS
[59] = tested on: OVCAR-8 ovarian

Structure (SMILES): Nc1c([N+](=O)[O-])cc([N+](=O)[O-])c(-c2nnc(-c3c([N+](=O)[O-])cc([N+](=O)[O-])c(N)c3[N+](=O)[O-])s2)c1[N+](=O)[O-]
- GI50 [1]: 416 nM
- TGI [1]: 1550 nM
- GI50 [2]: 1970 nM
- TGI [2]: 4530 nM
- GI50 [3]: 739 nM
- TGI [3]: 2090 nM
- GI50 [4]: 2040 nM
- TGI [4]: 5460 nM
- GI50 [5]: 1510 nM
- TGI [5]: 4350 nM
- GI50 [6]: 1780 nM
- TGI [6]: 3200 nM
- GI50 [7]: 1940 nM
- TGI [7]: 4820 nM
- GI50 [8]: 682 nM
- TGI [8]: 3100 nM
- GI50 [9]: 1220 nM
- TGI [9]: 2760 nM
- GI50 [10]: 351 nM
- TGI [10]: 1130 nM
- GI50 [11]: 603 nM
- TGI [11]: 1900 nM
- GI50 [12]: 1380 nM
- TGI [12]: 2920 nM
- GI50 [13]: 537 nM
- TGI [13]: 1170 nM
- GI50 [14]: 1270 nM
- TGI [14]: 2520 nM
- GI50 [15]: 1170 nM
- TGI [15]: 2460 nM
- GI50 [16]: 915 nM
- TGI [16]: 2230 nM
- GI50 [17]: 2310 nM
- TGI [17]: 6210 nM
- GI50 [18]: 2280 nM
- TGI [18]: 8010 nM
- GI50 [19]: 1970 nM
- TGI [19]: 4340 nM
- GI50 [20]: 1470 nM
- TGI [20]: 2800 nM
- GI50 [21]: 301 nM
- TGI [21]: 1050 nM
- GI50 [22]: 2180 nM
- TGI [22]: 4720 nM
- GI50 [23]: 1790 nM
- TGI [23]: 5470 nM
- GI50 [24]: 345 nM
- TGI [24]: 1170 nM
- GI50 [25]: 1430 nM
- TGI [25]: 2910 nM
- GI50 [26]: 953 nM
- TGI [26]: 2170 nM
- GI50 [27]: 2550 nM
- TGI [27]: 7690 nM
- GI50 [28]: 1640 nM
- TGI [28]: 3280 nM
- GI50 [29]: 3020 nM
- TGI [29]: 12300 nM
- GI50 [30]: 551 nM
- TGI [30]: 1570 nM
- GI50 [31]: 2260 nM
- TGI [31]: 6540 nM
- GI50 [32]: 4870 nM
- TGI [32]: 20400 nM
- GI50 [33]: 225 nM
- TGI [33]: 593 nM
- GI50 [34]: 1430 nM
- TGI [34]: 2730 nM
- GI50 [35]: 1910 nM
- TGI [35]: 3940 nM
- GI50 [36]: 2470 nM
- TGI [36]: 6030 nM
- GI50 [37]: 2480 nM
- TGI [37]: 7050 nM
- GI50 [38]: 1150 nM
- TGI [38]: 2560 nM
- GI50 [39]: 1700 nM
- TGI [39]: 3170 nM
- GI50 [40]: 3140 nM
- TGI [40]: 8230 nM
- GI50 [41]: 1700 nM
- TGI [41]: 3420 nM
- GI50 [42]: 320 nM
- TGI [42]: 1500 nM
- GI50 [43]: 860 nM
- TGI [43]: 2240 nM
- GI50 [44]: 1430 nM
- TGI [44]: 2830 nM
- GI50 [45]: 1100 nM
- TGI [45]: 2400 nM
- GI50 [46]: 1120 nM
- TGI [46]: 2380 nM
- GI50 [47]: 1580 nM
- TGI [47]: 3010 nM
- GI50 [48]: 1660 nM
- TGI [48]: 3220 nM
- GI50 [49]: 1760 nM
- TGI [49]: 3330 nM
- GI50 [50]: 2480 nM
- TGI [50]: 6770 nM
- GI50 [51]: 1710 nM
- TGI [51]: 3460 nM
- GI50 [52]: 449 nM
- TGI [52]: 8400 nM
- GI50 [53]: 1900 nM
- TGI [53]: 4750 nM
- GI50 [54]: 1300 nM
- TGI [54]: 2690 nM
- GI50 [55]: 1690 nM
- TGI [55]: 3120 nM
- GI50 [56]: 1620 nM
- TGI [56]: 3330 nM
- GI50 [57]: 725 nM
- TGI [57]: 2920 nM
- GI50 [58]: 1260 nM
- TGI [58]: 2520 nM
- GI50 [59]: 600 nM
- TGI [59]: 1460 nM

Structure (SMILES): CC(=O)OC[C@]12CCC(C)=C[C@H]1O[C@@H]1[C@H](O)[C@@H](OC(C)=O)[C@@]2(C)[C@@]12CO2
- TGI [4]: 29.8 nM
- TGI [7]: 30.4 nM
- TGI [8]: 176 nM
- TGI [12]: 23.8 nM
- GI50 [15]: 21.4 nM
- TGI [15]: 101 nM
- GI50 [21]: 17.9 nM
- TGI [23]: > 100000 nM
- GI50 [24]: 16 nM
- GI50 [26]: 14.8 nM
- TGI [26]: 24 nM
- TGI [33]: 17.6 nM
- TGI [42]: > 100000 nM
- GI50 [52]: < 10 nM
- TGI [52]: < 10 nM
- GI50 [57]: < 10 nM
- TGI [57]: < 10 nM
